A selection: hits, their analogues and other compounds. The true share with any hit is near 2.1%.
UUG fidelity: modulators of start codon recognition fidelity in yeast. S. cerevisiae UUG-firefly luciferase reporter, luminescence/redox ratio. activity score, % at 18.7 µM. 350,000 tested, 0.13% active;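 active = replicate mean at a twofold rise or more, about +100% in these data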;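 note: firefly luciferase made from a UUG start codon reports start codon fidelity; reporter light over untreated wells divided by growth signal over untreated wells; some hits fall short of that in this replicate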
INS-1E GSIS act: primary screen for activators of insulin secretion dependent on glucose, INS-1E cells, GLuc reporter luminescence; INS-1E GLuc reporter insulin secretion, 2-3 h; activation, % at 16.6 µM; hit rate 0.61% among 370,000; AID 743287;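 active = lowest replicate activation of at least 40%, so every replicate reaches that level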;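 also: 0% = median of neutral control wells and 100% = median of IBMX positive control wells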
NR1D1 modulator: modulators of human Rev-erb alpha DNA binding | P20393 | Rev-erbα–FITC-DNA binding, fluorescence polarization, 90 min | activity, % at 10 µM | hit rate 0.79% among 370,000 | AID 1259318;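 active = activity above about 14%, limit read from the data; passing the limit was not always enough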;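 also: 0% = DMSO wells with 35 nM protein and 100% = DMSO wells with 750 nM protein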
ERp5 inh: ERp5 (human) disulfide isomerase inhibition; ERp5 insulin aggregation, absorbance 650 nm, 90 min; inhibition, % at 9.99 µM; hit rate 0.05% among 350,000;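 active = mean replicate inhibition above about 25%, with every replicate also reaching it, limit read from the data, passing the limit was not always enough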
PDI inh: blocks human protein disulfide isomerase activity | P07237 | PDI insulin aggregation turbidity, A650, 90 min | inhibition, % at 10 µM | hit rate 0.052% among 350,000 | AID 588391;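 active = mean inhibition across replicates of 30% or more, whatever share of single replicates reach that level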
SMARCA2 activ: increases SMARCA2 function in MMTV reporter cells; AID 652017; MG213 cells, MMTV-luciferase reporter, dexamethasone, overnight; hit rate 1% among 370,000; activation, % at 9.1 µM; in the data active = activation above about 7.8%;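 also: 0% = vehicle wells and 100% = reference activator wells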
An asterisk follows results filed as active; nt = no result; ! = not active in a repeat.

1) COc1ccccc1CN(C)C[C@@H]1OCc2cn(nn2)CCCC(=O)N([C@@H](C)CO)C[C@H]1C
2) COc1cc(CNCCc2ccccc2)cc(Cl)c1OCc1ccccc1
3) COc1cc(CNCc2ccccc2)cc(Cl)c1OC
4) CN1c2ccc(Br)cc2[C@H]2[C@H](CCN2S(=O)(=O)c2cccc(F)c2)[C@H]1CO
5) CC(C)NC(=O)Nc1ccc2c(c1)C(=O)N([C@H](C)CO)C[C@@H](C)[C@H](CN(C)Cc1ccc(Oc3ccccc3)cc1)O2
6) Cc1cccc(OCC(O)Cn2c(=N)n(Cc3ccccc3)c3ccccc32)c1 (stereo not drawn)
7) Cc1cccc(OCC(O)Cn2c(=N)n(CCN3CCCCC3)c3ccccc32)c1 (stereo not drawn)
8) CNC[C@@H]1OCCCC[C@@H](C)Oc2ccc(NC(=O)Nc3ccc(C(F)(F)F)cc3)cc2C(=O)N([C@H](C)CO)C[C@H]1C

Compound	1	2	3	4	5	6	7	8
UUG fidelity	nt	-9	-14	-8	6	4	-7	-6
INS-1E GSIS act	3	122*	-3	-28	-29	-46	nt	-5
NR1D1 modulator	nt	5	-3	nt	nt	1	-1	nt
ERp5 inh	nt	-1	-3	-4	-4	3	nt	-3
PDI inh	nt	4	-4	nt	nt	-3	-1	nt
SMARCA2 activ	nt	-1	-2	nt	nt	-6	7.8*	nt

From entry 6 up to 8, as listed above:
6) Cc1cccc(OCC(O)Cn2c(=N)n(Cc3ccccc3)c3ccccc32)c1 (stereo not drawn)
7) Cc1cccc(OCC(O)Cn2c(=N)n(CCN3CCCCC3)c3ccccc32)c1 (stereo not drawn)
8) CNC[C@@H]1OCCCC[C@@H](C)Oc2ccc(NC(=O)Nc3ccc(C(F)(F)F)cc3)cc2C(=O)N([C@H](C)CO)C[C@H]1C

Compound	6	7	8
UUG fidelity	4	-7	-6
INS-1E GSIS act	-46	nt	-5
NR1D1 modulator	1	-1	nt
ERp5 inh	3	nt	-3
PDI inh	-3	-1	nt
SMARCA2 activ	-6	7.8*	nt

Further results follow:
9) C[C@@H]1CCCCO[C@H](CN(C)C)[C@H](C)CN([C@H](C)CO)C(=O)c2cc(NC(=O)c3ccccc3)ccc2O1
10) Oc1[nH]c2c(Cl)cc(Cl)cc2c1N=NC(=S)NCC1CCCO1 (stereo not drawn)
11) Cc1cc(C)c2[nH]c(O)c(N=NC(=S)NCC3CCCO3)c2c1 (stereo not drawn)
12) COCCCNC(=O)C(=O)NCC(c1ccco1)N1CCN(c2ccc(OC)cc2)CC1 (stereo not drawn)
13) COc1ccc(N2CCN(C(CNC(=O)C(=O)NCCC3=CCCCC3)c3ccco3)CC2)cc1 (stereo not drawn)
14) O=C(NCCC1=CCCCC1)C(=O)NCC(c1ccco1)N1CCN(c2ccccc2)CC1 (stereo not drawn)
15) C[C@H](CO)N1C[C@H](C)[C@@H](CN(C)S(C)(=O)=O)Oc2ccc(NC(=O)Cc3ccccc3)cc2CC1=O
16) O=C(c1cccc(F)c1)N1C[C@@H]2[C@H](c3ccccc31)[C@H](CO)N2C(=O)c1ccccn1

Compound	9	10	11	12	13	14	15	16
UUG fidelity	11	nt	-19	-15	-15	nt	0	24
INS-1E GSIS act	23	nt	69*	50*	-12	126*	3	0
NR1D1 modulator	nt	-1	4	-6	1	1	nt	nt
ERp5 inh	5	nt	nt	-2	nt	nt	-1	-2
PDI inh	nt	-2	0	0	-16	-18	nt	nt
SMARCA2 activ	nt	0	2	-1	6	6	nt	nt

17) COc1ccc2nc(SCc3ccccc3C)nc(C)c2c1
18) COc1ccc2nc(SCc3cccc(C)c3)nc(C)c2c1
19) CCN(c1ccccc1)c1nc(Cl)nc2c1cnn2C
20) CCCc1cc(=O)oc2cc(OCC(=O)NCCCn3ccnc3)ccc12
21) CCCc1cc(=O)oc2cc(OC(C)C(=O)NCCCn3ccnc3)ccc12 (stereo not drawn)
22) COc1ccc(-c2[nH]c3ccccc3c2SCCN)cc1
23) Cc1noc(C)c1NC(=O)Nc1ccc2c(c1)C(=O)N([C@H](C)CO)C[C@@H](C)[C@@H](CN(C)S(=O)(=O)c1cn(C)cn1)O2
24) Cc1cccc(C)c1N=Nc1c(C)cc(O)cc1C

Compound	17	18	19	20	21	22	23	24
UUG fidelity	nt	nt	8	-19	-5	-6	-4	-9
INS-1E GSIS act	4	-13	46*	7	-2	57*	14	571*
NR1D1 modulator	12	5	1	-2	4	7	nt	7
ERp5 inh	11	nt	-10	-4	2	-8	0	5
PDI inh	-6	0	-4	-3	-5	1	nt	-4
SMARCA2 activ	4	8.5*	-3	0	7.9*	0	nt	-1

25) C[C@@H]1CN([C@@H](C)CO)S(=O)(=O)c2ccc(Br)cc2O[C@H]1CN(C)C(=O)C1CC1
26) CC(C)CC#Cc1cnc2c(c1)C(=O)N([C@@H](C)CO)C[C@@H](C)[C@H](CN(C)C(=O)c1cnccn1)O2
27) O=C(Nc1ccc2ccccc2c1)c1cccc2ccccc12
28) C/C=C/c1ccc(C2[C@H]3CNC[C@@H]2N3Cc2cc(-c3ccccc3)on2)cc1 (stereo partly drawn)
29) COc1ccccc1-c1ccc(C2[C@H]3CNC[C@@H]2N3Cc2cc(-c3ccccc3)on2)cc1 (stereo partly drawn)
30) N#Cc1cccc(-c2ccc(C3[C@H]4CNC[C@@H]3N4Cc3cc(-c4ccccc4)on3)cc2)c1 (stereo partly drawn)
31) CC1=C(/C=C/C(C)=C/C=C/C(C)=C/C(=O)Nc2ccc(O)cc2)C(C)(C)CCC1
32) CC1=C(/C=C/C(C)=C/C=C/C(C)=C\C(=O)O)C(C)(C)CCC1

Compound	25	26	27	28	29	30	31	32
UUG fidelity	11	1	-4	nt	nt	nt	-4	7
INS-1E GSIS act	21	18	71*	72*!	-2	72*!	153*	nt
NR1D1 modulator	nt	nt	-2	nt	nt	nt	-9	0
ERp5 inh	-4	-5	3	1	3	0	-1	-10
PDI inh	nt	nt	-3	nt	nt	nt	-5	1
SMARCA2 activ	nt	nt	2	nt	nt	nt	-5	4

33) CCOc1ccc(CCN2C(=O)C(=O)N([C@@H](CC(C)C)CN3CCC[C@H]3CN3C(=O)C(=O)NC[C@@H]3Cc3ccccc3)C[C@@H]2Cc2ccc(O)cc2)cc1
34) O=C1NC[C@H](Cc2ccccc2)N(C[C@H]2CCCN2C[C@H](Cc2ccccc2)N2C[C@H](Cc3ccc(O)cc3)N(CCc3ccccc3)C(=O)C2=O)C1=O
35) CCOc1ccc(CCN2C(=O)C(=O)N([C@@H](CC(C)C)CN3CCC[C@@H]3CN3C(=O)C(=O)NC[C@@H]3Cc3ccccc3)C[C@@H]2Cc2ccc(O)cc2)cc1
36) Cc1cc(C(=O)Nc2cccc(O)c2)c(C)o1
37) COc1ccc2c3c([nH]c2c1)[C@@H](CO)N(S(C)(=O)=O)CC31CCN(C(=O)c2ccccc2)CC1
38) O=C(Nc1cccnc1)/C(N=Nc1cccnc1)=C(\O)c1ccccc1
39) O=C(Nc1ccccc1)C(=O)Nc1cccnc1
40) COc1ccc(Br)cc1C(=O)Nc1cc(C)cc(C)c1

Compound	33	34	35	36	37	38	39	40
UUG fidelity	nt	-13	2	-15	nt	nt	-18	-26
INS-1E GSIS act	4	3	-31	57*	7	75*	nt	82*
NR1D1 modulator	3	-3	-1	8	nt	0	5	-1
ERp5 inh	-4	-4	2	nt	7	nt	nt	nt
PDI inh	nt	42*	54*	4	nt	-7	8	-5
SMARCA2 activ	-5	-2	1	0	nt	4	4	-1

41) Cc1ccc(S(=O)(=O)c2ccc(Oc3cccc(C)c3)cc2)cc1
42) CC(C)NC(=O)N(C)C[C@H]1Oc2ccc(NC(=O)NC3CCCCC3)cc2C(=O)N([C@@H](C)CO)C[C@H]1C
43) Cc1ccc(S(=O)(=O)SCCCSS(=O)(=O)c2ccc(C)cc2)cc1
44) C[C@H]1CN([C@@H](C)CO)C(=O)c2cccc(NC(=O)Nc3cccc4ccccc34)c2O[C@H]1CN(C)C(=O)NC1CCCCC1
45) O[C@H]1C[C@H](c2ccccc2)N(CC2CCCCC2)C[C@@H]1n1cc(C2CC2)nn1

Compound	41	42	43	44	45
UUG fidelity	3	-2	-24	-4	-9
INS-1E GSIS act	nt	0	189*	1	143*
NR1D1 modulator	3	nt	-4	nt	4
ERp5 inh	nt	1	0	-2	-2
PDI inh	32*	nt	13	nt	3
SMARCA2 activ	-4	nt	2	nt	1
